Here are results for 1 substance from patent US5856161.

The assay has as its target endogenous p60 TNF receptor (human) (UniProt P19438). Nature of the assay: 35S-labelled cdk2 added to U937 cell lysates, immunoprecipitation with affinity-purified anti-p60 receptor antibodies, PhosphorImager.

Turning to cdk2 (from UniProt P24941) (enzyme), the fold increase in binding (TNF-treated against untreated cells) is 10 fold.
